Article PMC2409616 (British Journal of Cancer, 2004)

Experiments:
[1] = tested on: SiHa-NTR^puro; assay: 4-h exposure IC50 assay in NTR transfectant vs parental line; assay type: cell-based, human; conditions: 4-h exposure IC50 assays; after 4 weeks growth without puromycin
[2] = tested on: UV4

With NC(=O)c1cc(N2CC2)c([N+](=O)[O-])cc1[N+](=O)[O-] [compound 1, 5-(aziridin-1-yl)-2,4-dinitrobenzamide, reference compound] as the compound, how does the “Sensitivity of SiHa-NTR^puro relative to the parental line” value [1] read?
Its value is 440 fold.

What about the “AA8/UV4 intra-experiment IC50 ratio” value [2] of the same compound?
Its value is 22.1±5.2.
